Molecular target: LRRK2 (Homo sapiens (Human), UniProt Q5S007, G2019S)
Assay: In Vitro LRRK2 LabChip Assay
Type: biochemical
Settings: Table 4
Protocol: In Vitro LRRK2 LabChip Assay
This assay was used to determine a compound's potency in inhibiting activity of LRRK2 by determining, Kiapp, IC50, or percent inhibition values. In a polypropylene plate, LRRK2, fluorescently-labeled peptide substrate, ATP and test compound were incubated together. Using a LabChip 3000 (Caliper Life Sciences), after the reaction the substrate was separated by capillary electrophoresis into two populations: phosphorylated and unphosphorylated. The relative amounts of each were quantitated by fluorescence intensity. LRRK2 Ki was determined according to the equation: Y=V0*(1−((x+Ki*(1+S/Km)+Et)/(2*Et)−(((x+Ki*(1+S/Km)+Et)^2−(4*Et*x))^0.5)/(2*Et))). Ki values in Table 4 and elsewhere herein are shown in μM.
Assay conditions and materials used were as follows:
Compound Plate Preparation:
For serial dilutions, 34.6 μl DMSO was added to columns 3-24. […]
The plate was incubated for 2 hours in the dark. […] Results were read on the LabChip 3000. […]

Amino acid sequences for entries named in this document (tags omitted). Residues count along the entry.
UniProt Q5S007, 970-2527 G2019S limits assumed: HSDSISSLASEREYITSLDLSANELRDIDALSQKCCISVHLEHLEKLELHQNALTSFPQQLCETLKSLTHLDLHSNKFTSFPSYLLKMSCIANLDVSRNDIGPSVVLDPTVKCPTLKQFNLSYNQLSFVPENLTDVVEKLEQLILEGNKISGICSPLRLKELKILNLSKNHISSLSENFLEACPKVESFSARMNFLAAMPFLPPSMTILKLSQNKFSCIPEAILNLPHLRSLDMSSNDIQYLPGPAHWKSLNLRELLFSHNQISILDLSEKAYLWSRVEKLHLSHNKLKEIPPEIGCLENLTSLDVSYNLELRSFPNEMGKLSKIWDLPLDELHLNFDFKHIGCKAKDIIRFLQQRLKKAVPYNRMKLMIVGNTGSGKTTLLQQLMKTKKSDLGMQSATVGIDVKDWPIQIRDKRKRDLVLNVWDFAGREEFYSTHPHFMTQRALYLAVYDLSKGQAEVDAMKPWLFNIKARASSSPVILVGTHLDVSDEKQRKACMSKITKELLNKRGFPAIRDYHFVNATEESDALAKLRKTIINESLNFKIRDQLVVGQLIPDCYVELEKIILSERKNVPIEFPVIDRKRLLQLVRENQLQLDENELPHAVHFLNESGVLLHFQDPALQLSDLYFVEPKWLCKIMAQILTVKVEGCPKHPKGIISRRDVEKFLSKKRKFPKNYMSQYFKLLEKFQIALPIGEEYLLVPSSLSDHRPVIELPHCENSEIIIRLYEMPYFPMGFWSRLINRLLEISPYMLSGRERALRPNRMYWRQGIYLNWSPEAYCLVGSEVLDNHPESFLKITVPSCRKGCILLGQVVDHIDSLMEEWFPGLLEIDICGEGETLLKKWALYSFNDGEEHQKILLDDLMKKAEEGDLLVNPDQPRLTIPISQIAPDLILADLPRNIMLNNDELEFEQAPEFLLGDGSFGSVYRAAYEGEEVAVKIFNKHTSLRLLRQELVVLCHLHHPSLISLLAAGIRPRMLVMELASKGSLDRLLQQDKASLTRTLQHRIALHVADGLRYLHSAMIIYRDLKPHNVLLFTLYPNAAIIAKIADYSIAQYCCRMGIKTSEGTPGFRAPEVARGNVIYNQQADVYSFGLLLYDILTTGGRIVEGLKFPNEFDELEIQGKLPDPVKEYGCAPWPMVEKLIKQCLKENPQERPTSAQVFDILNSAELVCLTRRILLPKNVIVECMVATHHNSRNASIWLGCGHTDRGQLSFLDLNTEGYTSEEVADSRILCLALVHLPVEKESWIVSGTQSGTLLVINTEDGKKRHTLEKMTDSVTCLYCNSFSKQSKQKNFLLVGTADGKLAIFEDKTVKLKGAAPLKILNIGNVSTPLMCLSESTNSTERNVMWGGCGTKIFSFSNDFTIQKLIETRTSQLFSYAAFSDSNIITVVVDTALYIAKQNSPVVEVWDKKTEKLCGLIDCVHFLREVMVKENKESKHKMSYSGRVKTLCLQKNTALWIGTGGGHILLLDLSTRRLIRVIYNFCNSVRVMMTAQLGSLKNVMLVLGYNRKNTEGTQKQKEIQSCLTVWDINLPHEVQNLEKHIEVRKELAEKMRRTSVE

Ki: 2.5 nM
SMILES: CCN1CCN(C(=O)c2ccc(Nc3ncc(Br)c(OC)n3)c(OC)c2)CC1 [Example 83, [4-(5-Bromo-4-methoxy-pyrimidin-2-ylamino)-3-methoxy-phenyl]-(4-ethyl-piperazin-1-yl)-methanone]

Reference: patent publication US8802674B2, “Aminopyrimidine derivatives as LRRK2 modulators” (Genentech, Inc., priority 2011, dated 2014)
